Tested on: neonatal murine astrocytes co-cultured with U87 MG
Test: Confocal microscopy of treated co-cultures (GFAP)
Format: cell-based, mouse
Conditions: IC50,U87 MG doses, 24 h

For `CCN(CC)CCNC(=O)c1c(C)[nH]c(/C=C2\C(=O)Nc3ccc(F)cc32)c1C` [Sun, sunitinib], the “astrocyte activation (GFAP staining)” value was “astrocytes become reactive”.

Source: article PMC7698965 (Cancers, 2020)
